Target: CBP (Homo sapiens (Human), UniProt Q92793)
Assay: CBP TR-FRET binding assay;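 further: displacement of a biotinylated small-molecule ligand from purified recombinant CBP read by TR-FRET, DMSO-only wells as control, IC50 from nonlinear curve fit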
Details: His/Flag tagged CBP 4 nM, biotin-ligand 60 nM; read-out: CBP HTRF IC50

Protein sequences, listed by entry. Tags and fused reporters are not part of them.
UniProt Q92793, whole entry: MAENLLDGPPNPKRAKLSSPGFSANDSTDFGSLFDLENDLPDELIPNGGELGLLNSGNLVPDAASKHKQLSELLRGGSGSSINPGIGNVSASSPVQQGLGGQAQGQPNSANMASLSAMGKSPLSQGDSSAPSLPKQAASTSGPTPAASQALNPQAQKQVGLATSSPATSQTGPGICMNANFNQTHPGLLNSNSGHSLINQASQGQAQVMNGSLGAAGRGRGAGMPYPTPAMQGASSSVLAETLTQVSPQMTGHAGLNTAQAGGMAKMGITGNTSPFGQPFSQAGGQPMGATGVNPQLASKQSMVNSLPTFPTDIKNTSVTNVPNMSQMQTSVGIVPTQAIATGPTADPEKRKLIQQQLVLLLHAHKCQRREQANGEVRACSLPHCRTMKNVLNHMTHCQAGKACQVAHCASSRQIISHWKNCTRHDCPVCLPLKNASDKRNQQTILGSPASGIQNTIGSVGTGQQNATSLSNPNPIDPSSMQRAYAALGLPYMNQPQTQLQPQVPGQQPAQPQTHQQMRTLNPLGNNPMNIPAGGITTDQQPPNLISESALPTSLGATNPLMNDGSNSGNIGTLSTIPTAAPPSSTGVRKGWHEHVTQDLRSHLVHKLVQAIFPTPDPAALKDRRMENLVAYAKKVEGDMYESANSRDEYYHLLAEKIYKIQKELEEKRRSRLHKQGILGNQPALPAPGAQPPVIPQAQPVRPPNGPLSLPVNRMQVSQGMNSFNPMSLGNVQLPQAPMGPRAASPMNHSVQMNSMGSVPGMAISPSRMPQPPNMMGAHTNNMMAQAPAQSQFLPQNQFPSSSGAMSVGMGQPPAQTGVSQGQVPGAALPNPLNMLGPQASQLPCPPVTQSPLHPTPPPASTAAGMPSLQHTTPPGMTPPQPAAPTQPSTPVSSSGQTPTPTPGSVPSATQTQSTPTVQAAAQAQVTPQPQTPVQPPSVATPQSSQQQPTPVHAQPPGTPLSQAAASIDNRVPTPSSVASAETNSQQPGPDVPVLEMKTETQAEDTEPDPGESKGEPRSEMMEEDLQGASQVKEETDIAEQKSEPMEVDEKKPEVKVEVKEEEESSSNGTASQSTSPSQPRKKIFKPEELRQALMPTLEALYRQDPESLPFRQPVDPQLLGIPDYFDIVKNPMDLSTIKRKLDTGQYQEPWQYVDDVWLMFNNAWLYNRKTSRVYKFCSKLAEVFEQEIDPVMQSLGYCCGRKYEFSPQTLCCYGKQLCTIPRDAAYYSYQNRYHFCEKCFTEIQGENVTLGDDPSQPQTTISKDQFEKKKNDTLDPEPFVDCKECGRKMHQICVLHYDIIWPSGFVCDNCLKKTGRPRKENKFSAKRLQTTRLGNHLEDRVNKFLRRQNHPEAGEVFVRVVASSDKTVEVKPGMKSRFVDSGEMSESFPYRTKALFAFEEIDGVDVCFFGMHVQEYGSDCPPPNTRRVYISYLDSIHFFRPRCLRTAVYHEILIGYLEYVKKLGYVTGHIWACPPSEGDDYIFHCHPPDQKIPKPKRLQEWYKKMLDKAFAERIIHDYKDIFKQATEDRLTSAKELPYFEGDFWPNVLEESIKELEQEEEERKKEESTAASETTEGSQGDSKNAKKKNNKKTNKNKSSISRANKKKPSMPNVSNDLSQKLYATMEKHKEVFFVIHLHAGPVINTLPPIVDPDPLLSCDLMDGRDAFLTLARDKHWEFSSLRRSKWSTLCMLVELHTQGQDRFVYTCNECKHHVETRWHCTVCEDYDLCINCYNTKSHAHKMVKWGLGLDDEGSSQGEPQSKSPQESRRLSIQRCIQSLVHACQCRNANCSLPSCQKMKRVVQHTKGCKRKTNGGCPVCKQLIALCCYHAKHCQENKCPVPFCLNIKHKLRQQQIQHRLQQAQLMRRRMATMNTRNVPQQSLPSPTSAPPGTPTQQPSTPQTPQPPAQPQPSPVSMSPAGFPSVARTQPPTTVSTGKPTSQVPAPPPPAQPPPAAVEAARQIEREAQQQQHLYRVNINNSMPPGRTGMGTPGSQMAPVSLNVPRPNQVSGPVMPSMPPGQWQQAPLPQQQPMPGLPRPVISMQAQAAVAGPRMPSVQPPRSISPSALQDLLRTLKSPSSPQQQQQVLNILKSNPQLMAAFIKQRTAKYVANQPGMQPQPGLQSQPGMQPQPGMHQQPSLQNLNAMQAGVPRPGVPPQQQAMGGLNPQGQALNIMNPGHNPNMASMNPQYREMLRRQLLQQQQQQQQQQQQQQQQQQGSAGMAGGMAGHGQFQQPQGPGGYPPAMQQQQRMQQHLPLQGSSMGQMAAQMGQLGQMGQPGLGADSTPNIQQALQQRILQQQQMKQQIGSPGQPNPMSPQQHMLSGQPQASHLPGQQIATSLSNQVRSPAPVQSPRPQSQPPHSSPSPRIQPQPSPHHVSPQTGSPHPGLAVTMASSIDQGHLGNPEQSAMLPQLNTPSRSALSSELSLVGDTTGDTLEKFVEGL

IC50 | Structure (SMILES)
206 nM | C[C@@H]1Nc2c(cccc2N2CCCc3cc(-c4cnn(C)c4)c(C(F)F)cc32)NC1=O [Example 80, (S)-5-(7-(difluoromethyl)-6-(1-methyl-1H-pyrazol-4-yl)-3,4-dihydroquinolin-1(2H)-yl)-3-methyl-3,4-dihydroquinoxalin-2(1H)-one]
102 nM | C[C@H]1Nc2c(cccc2N2CCCc3cc(-c4cnn(C)c4)c(C(F)F)cc32)NC1=O [Example 81, (R)-5-(7-(difluoromethyl)-6-(1-methyl-1H-pyrazol-4-yl)-3,4-dihydroquinolin-1(2H)-yl)-3-methyl-3,4-dihydroquinoxalin-2(1H)-one]

— patent US10696655B2, “Therapeutic compounds and uses thereof” (GENENTECH, INC., priority 2017, dated 2020)
